Reference: PubChem BioAssay AID2551 (National Center for Advancing Translational Sciences (NCATS), 2010)
This is a selection; strong and weak results do not stand in their true shares. Results filed as inconclusive are left out. Some salts or complexes appear as unconnected parts, following the source record. Activity calls are given as the source filed them. Calls follow the shape of the dose curve; as a rule, active = well fitted inhibition curve with a large enough effect; inconclusive = small, poorly fitted or top-dose-only effect, or effect the other way; inactive = no such curve, though single readings can be large or run the other way.

The chains behind the UniProt entries cited, without tags or fusion partners.
UniProt P51450, whole entry: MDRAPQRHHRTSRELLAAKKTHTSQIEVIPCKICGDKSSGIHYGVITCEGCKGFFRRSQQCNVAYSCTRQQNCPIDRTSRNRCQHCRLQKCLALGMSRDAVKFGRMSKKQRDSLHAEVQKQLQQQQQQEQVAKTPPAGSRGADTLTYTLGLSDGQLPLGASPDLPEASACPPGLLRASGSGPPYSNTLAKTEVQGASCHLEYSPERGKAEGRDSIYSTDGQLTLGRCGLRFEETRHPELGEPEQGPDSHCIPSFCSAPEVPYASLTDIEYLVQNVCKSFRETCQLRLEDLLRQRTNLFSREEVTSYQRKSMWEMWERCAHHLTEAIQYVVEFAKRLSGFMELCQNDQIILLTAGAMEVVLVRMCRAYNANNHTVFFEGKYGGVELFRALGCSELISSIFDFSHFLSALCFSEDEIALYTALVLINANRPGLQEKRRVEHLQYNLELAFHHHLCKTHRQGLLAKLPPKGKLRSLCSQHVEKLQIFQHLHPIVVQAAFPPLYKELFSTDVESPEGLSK

These molecules were tested against Nuclear receptor ROR-gamma (Mus musculus) (UniProt P51450) (assay: qHTS for inhibitors of ROR gamma transcriptional activity). Settings: Drosophila S2 Gal4-RORgamma UAS-luciferase reporter, 20 h; at 53.6 µM (top of the series).
% is scaled to controls: 0 for no effect and ±100 for the full control effect.
Also: nearly all actives have a fitted effect of over 60% in size.

| Compound | activity change, negative = inhibition |
| --- | --- |
| CC(C)c1ccc(NC2CCN(C(=O)OC(C)(C)C)CC2)cc1 | inactive: 0.542% |
| COc1ccc(CN(CCCl)CCCl)cc1Cl | inactive: 1.48% |
| CN(C)c1cccc(C(=O)NCC2(N3CCCCC3)CCCCC2)c1 | inactive: 1.74% |
| COc1cc(OC)c(C(=O)NCC2(N(C)C)CCCCC2)cc1OC | inactive: -22.3% |
| CCOP(=O)(Cl)Cl | inactive: 10.6% |
| O=C(OC1CN2CCC1CC2)c1ccc([N+](=O)[O-])cc1 (stereo not given) | inactive: 19.3% |
| COc1ccc2c(c1O)-c1c(O)c(OC)cc3c1[C@H](C2)[N+](C)(C)CC3.O=[N+]([O-])c1cc([N+](=O)[O-])c([O-])c([N+](=O)[O-])c1[O-] | inactive: -10.4% |
| CCCOc1ccc(C(=O)NCC2(N(C)C)CCCCC2)cc1OC | inactive: 39.6% |
| O=C(NCC1(N2CCCCC2)CCCCC1)c1ccc(OC(F)F)cc1 | inactive: 2.03% |
| N#CC1(Nc2ccccc2)CCN(CCc2ccccc2)CC1 | inactive: 27.4% |
| O=C(NCC1(N2CCCCC2)CCCCC1)c1cccc([N+](=O)[O-])c1 | inactive: -14% |
| O=C(NCC1(N2CCCCC2)CCCCC1)c1cccc(C(F)(F)F)c1 | inactive: 3.55% |
| COc1cc(C(=O)NCC2(N3CCCCC3)CCCCC2)ccc1OC(F)F | inactive: -14.7% |
| O=C(NCC1(N2CCOCC2)CCCCC1)c1cc(=O)[nH]c2ccccc12 | inactive: 4.46% |
| CN1CCN(CCOC(=O)C(O)(c2ccccc2)c2ccccc2)CC1 | inactive: -1.34% |
| COc1ccc(NC2CCN(C(=O)OC(C)(C)C)CC2)cc1 | inactive: 43.5% |
| CCOc1ccc(C)cc1CN(CCCl)CCCl | inactive: 8.74% |
| O=C(NCC1(N2CCCCC2)CCCCC1)c1ccc(F)cc1 | inactive: -5.67% |
| COc1ccc(NC2CCN(CCc3ccccc3)CC2)c(OC)c1 | inactive: -11.6% |
| CCOC(=O)N1CCC(Nc2ccc(F)cc2)CC1 | inactive: -18.7% |
| COc1cc(C(=O)NCC2(N(C)C)CCCCC2)ccc1OC(F)F | inactive: -12.2% |
| COc1ccc(C(=O)NCC2(N3CCCCC3)CCCCC2)cc1 | inactive: -21.6% |
| CC(C)(C)OC(=O)N1CCC(N(C(=O)c2ccccc2)c2ccc(F)cc2)CC1 | inactive: 0.41% |
| COc1ccc(C(=O)NCC2(N3CCCCC3)CCCCC2)c(OC)c1OC | inactive: 1.45% |
| O=C(NCC1(N2CCCCC2)CCCCC1)c1ccc(=O)[nH]c1 | inactive: -15% |
| CSc1ccccc1C(=O)NCC1(N2CCCCC2)CCCCC1 | inactive: -20.6% |
| Cc1cc(C)cc(N(C(=O)c2ccccc2)C2CCN(C(=O)OC(C)(C)C)CC2)c1 | inactive: -2.19% |
| O=C(NCC1(N2CCOCC2)CCCCC1)c1cc2ccccc2o1 | inactive: -2.24% |

| Compound | activity change, negative = inhibition |
| --- | --- |
| O=C(OC1CN2CCC1CC2)C1c2ccccc2Oc2ccccc21 (stereo not given) | inactive: -16.6% |
| N#CC1(Nc2ccccc2)CCN(Cc2ccccc2)CC1 | inactive: -2.92% |
| CCOC(=O)N1CCC(Nc2ccc(OC)cc2)CC1 | inactive: 1.83% |
| CCOc1ncccc1C(=O)NCC1(N2CCOCC2)CCCCC1 | inactive: 5.15% |
| CN1CCC(Nc2ccc(F)c(Cl)c2)CC1 | inactive: 7.44% |
| CC(C)(C)OC(=O)N1CCC(Nc2ccccc2)CC1 | inactive: 1.13% |
| O=C(O)C1(Nc2ccccc2)CCN(Cc2ccccc2)CC1 | inactive: -18.7% |
| CCCOc1ccc(C(=O)NCC2(N(C)C)CCCCC2)cc1 | inactive: -0.175% |
| COc1cc(OC)cc(C(=O)NCC2(N3CCOCC3)CCCCC2)c1 | inactive: 2.05% |
| COc1cccc(C(=O)N(c2cc(C)cc(C)c2)C2CCN(C(=O)OC(C)(C)C)CC2)c1 | inactive: -2.54% |
| CCC(CO)(C(=O)OC1CN2CCC1CC2)c1ccccc1 (stereo not given) | inactive: -3.57% |
| CCCOc1ccc(C)cc1CN(CCCl)CCCl | inactive: -11.8% |
| COc1cc(OC)cc(C(=O)NCC2(N3CCCCC3)CCCCC2)c1 | inactive: 1.18% |
| Fc1ccccc1NC1CCN(Cc2ccccc2)CC1 | inactive: -25.7% |
| CCN1CCC(Nc2cccc(F)c2)CC1 | inactive: -9.4% |
| CN(C)c1ccc(C(=O)NCC2(N3CCCCC3)CCCCC2)cc1 | inactive: 11.9% |
| N#Cc1ccc(C(=O)NCC2(N3CCCCC3)CCCCC2)cc1 | inactive: 4.89% |
| CC(C)(C)OC(=O)N1CCC(N(C(=O)c2ccccc2)c2ccc(Cl)cc2)CC1 | inactive: -25.4% |
| CCOC(=O)C(CC)C1=NC(C)(C)Cc2ccccc21.O=[N+]([O-])c1cc([N+](=O)[O-])c(O)c([N+](=O)[O-])c1 (stereo not given) | inactive: -16.3% |
| ClCCOP(OCCCl)OCCCl | inactive: -26.7% |
| CN(C)C1(CNC(=O)c2cccc(C#N)c2)CCCCC1 | inactive: -14.5% |
| c1ccc(CN2CCC(Nc3ccccc3)CC2)cc1 | inactive: 3.47% |
| COc1ccc(C(=O)NCC2(N3CCOCC3)CCCCC2)cc1OC | inactive: 1.2% |
| CCOC(=O)N1CCC(Nc2ccc(C)cc2)CC1 | inactive: 17.5% |
| N/C(=N\O)c1c(N)no[n+]1[O-] | inactive: -15.6% |
| O=C(OC1CN2CCC1CC2)C1c2ccccc2C=Cc2ccccc21 (stereo not given) | inactive: 13.8% |
| O=C(O)c1cccc(Nc2c([N+](=O)[O-])cc([N+](=O)[O-])cc2[N+](=O)[O-])c1 | inactive: -19.3% |
